By UniProt entry, the sequences of proteins in these tests, tags left out. Where a name states a change or a piece, a line headed by the entry shows the natural chain unless it says otherwise.
UniProt Q9P1W9: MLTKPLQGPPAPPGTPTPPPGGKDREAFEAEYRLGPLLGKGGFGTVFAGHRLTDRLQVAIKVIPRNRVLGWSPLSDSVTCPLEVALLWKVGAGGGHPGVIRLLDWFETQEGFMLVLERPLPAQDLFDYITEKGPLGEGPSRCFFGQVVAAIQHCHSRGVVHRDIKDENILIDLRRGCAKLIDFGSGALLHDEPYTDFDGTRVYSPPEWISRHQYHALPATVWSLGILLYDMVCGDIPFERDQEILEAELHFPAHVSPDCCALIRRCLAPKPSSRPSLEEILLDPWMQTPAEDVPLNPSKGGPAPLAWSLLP

According to ChEMBL document CHEMBL3297733, “Discovery and optimization of pyrrolo[1,2-a]pyrazinones leads to novel and selective inhibitors of PIM kinases” (Bioorg Med Chem, 2013):

What follows are compounds tested against Serine/threonine-protein kinase pim-2 (Homo sapiens, UniProt Q9P1W9) (assay: Inhibition of human PIM2 using ARK-RERTYSFGHHA as substrate incubated for 60 mins prior to substrate addition by topcount scintillation counting analysis in presence of [P33gamma]-ATP).
In the case of O=C(C[C@H]1CNC(=O)c2cc(-c3cccc(F)c3)cn21)N[C@H](CO)Cc1ccccc1, the pIC50 was 6.16.
CN1CCN(C(=O)C[C@H]2CNC(=O)c3cc(-c4cccc(F)c4)cn32)[C@@H](c2ccccc2)C1 gave a pIC50 of 6.02.
NC[C@@H](NC(=O)C[C@H]1CNC(=O)c2cc(-c3ccnc(F)c3)cn21)c1ccccc1 was tested, and the pIC50 was 7.01.
Work on NC[C@@H](NC(=O)C[C@@H]1CNC(=O)c2cc(-c3ccnc(F)c3)cn21)c1ccccc1 yielded a pIC50 of 6.30.
NC[C@@H](NC(=O)C[C@H]1CNC(=O)c2cc(-c3cccc(F)c3)cn21)c1ccccc1 was tested, and the pIC50 was 6.74.
Compound O=C(C[C@H]1CNC(=O)c2cc(-c3cccc(F)c3)cn21)N[C@H](CO)C1CCCCC1 has a pIC50 of 6.60.
Work on O=C(C[C@H]1CNC(=O)c2cc(-c3cccc(F)c3)cn21)N[C@H](CO)c1ccccc1 yielded a pIC50 of 6.29.
In the case of O=C(CC1CNC(=O)c2cc(-c3cccc(C(F)(F)F)c3)cn21)NCC1CCCCC1 (racemic), the pIC50 was < 5.30.
O=C(CC1CNC(=O)c2cc(-c3ccc(F)c(F)c3)cn21)NCc1ccco1 (racemic) gave a pIC50 of 5.65.

pIC50: −log10 of the molar value.
